The text below walks through data of patent US20050058634A1.

One may read the Kd as the constant that tells how readily two partners part at equilibrium.

Experiment [1] concerns the target CI-MPR on L6 myoblast cells. Briefly: cell-based or functional assay.
Experiment [2] concerns the target CI-MPR on L6 myoblast cells. The experiment is described as follows: estimated from the half maximal value of uptake into L6 myoblasts (GAA activity in lysates).

For “Recombinant human acid alpha-glucosidase (rhGAA), unmodified (from UniProt P10253 70-952) (enzyme)”, the uptake by L6 myoblasts (GAA activity in cell lysates), concentration at which uptake approached saturation in experiment [1] turned out to be 500 nM. For the same substance, the Kd in experiment [2] was 100 nM.
